Measured values as given in PubChem BioAssay (Tox21).
The entries are a selection whose mix differs from that of the whole data set. Inconclusive results are not listed. A call without a number means that no potency is given here. Calls of active or inactive are those of the source. The call rests on the fitted dose curve.

The chains behind the UniProt entries cited, without tags or fusion partners. Where a name states a change or a piece, a line headed by the entry shows the natural chain unless it says otherwise.
UniProt P06401: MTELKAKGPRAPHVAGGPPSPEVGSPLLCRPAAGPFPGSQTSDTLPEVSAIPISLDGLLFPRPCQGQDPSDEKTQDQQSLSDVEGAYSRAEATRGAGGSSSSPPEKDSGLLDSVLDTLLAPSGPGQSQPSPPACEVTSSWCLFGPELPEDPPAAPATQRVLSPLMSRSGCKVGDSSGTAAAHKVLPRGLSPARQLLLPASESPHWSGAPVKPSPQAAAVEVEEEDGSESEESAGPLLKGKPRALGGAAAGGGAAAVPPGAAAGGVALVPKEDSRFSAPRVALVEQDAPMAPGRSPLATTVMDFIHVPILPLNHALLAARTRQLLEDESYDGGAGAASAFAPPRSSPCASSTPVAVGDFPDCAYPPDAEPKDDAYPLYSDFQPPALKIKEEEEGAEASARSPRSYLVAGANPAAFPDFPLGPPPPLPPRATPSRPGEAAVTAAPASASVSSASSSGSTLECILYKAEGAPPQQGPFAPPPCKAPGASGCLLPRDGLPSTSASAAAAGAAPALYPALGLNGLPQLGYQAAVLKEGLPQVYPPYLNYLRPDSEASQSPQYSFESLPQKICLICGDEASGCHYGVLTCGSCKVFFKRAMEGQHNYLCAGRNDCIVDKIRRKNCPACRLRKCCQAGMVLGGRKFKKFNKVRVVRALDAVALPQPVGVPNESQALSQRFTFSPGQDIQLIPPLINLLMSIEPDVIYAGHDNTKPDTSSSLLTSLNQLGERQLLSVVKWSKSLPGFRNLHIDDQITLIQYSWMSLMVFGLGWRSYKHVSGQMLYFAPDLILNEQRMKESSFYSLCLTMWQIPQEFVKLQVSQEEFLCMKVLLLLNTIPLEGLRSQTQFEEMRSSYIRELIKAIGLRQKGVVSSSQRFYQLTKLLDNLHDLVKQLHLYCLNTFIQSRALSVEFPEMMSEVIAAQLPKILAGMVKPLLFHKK

Target: Progesterone receptor (Homo sapiens) (UniProt P06401)
Assay: qHTS assay to identify small molecule agonists of the progesterone receptor (PR) signaling pathway (AID 1346784); further: nearly all actives have a fitted effect of over 30% in size
Conditions: PR-UAS-bla HEK293T, beta-lactamase FRET ratio, 16 h; series mostly up to 92.4 µM
From the text: U.S. Tox21 Program National Center for Advancing Translational Sciences [NCATS] NIH Chemical Genomics Center [NCGC] U.S. Environmental Protection Agency [EPA] National Institutes of Environmental Health Sciences [NIEHS] National Toxicology Program [NTP] U.S. Food and Drug Administration [FDA] […] Endocrine disrupting chemicals (EDCs) and their interactions with steroid hormone receptors like PR causes disruption of normal endocrine function. To identify the compounds that activate PR signaling, a PR-UAS-bla GripTite cell line i.e. PR-UAS-bla HEK 293T (Invitrogen, Carlsbad, CA, USA) containing a beta-lactamase reporter gene under the control of an Upstream Activator Sequence (UAS) was used to screen Tox21 10K compound library.
Tox21 Assay Protocol Summary: PR-UAS-bla HEK 293T cells were dispensed at 3,000 cells/5 uL of assay medium containing 2% charcoal stripped FBS per well into black wall/clear-bottom 1536-well plates using a Multidrop Combi (ThermoFisher Scientific, Waltham, MA) dispenser. After the assay plates were incubated at a 37C and 5% CO2 for 6hr, 23 nL of compounds dissolved in DMSO, positive controls or DMSO only was transferred to the assay plate by a Pintool station (Kalypsys, San Diego, CA). The plates were incubated at 37C and 5% CO2 for 16hr. Then 1 uL of LiveBLAzer B/G FRET substrate was added using a BioRAPTR FRD (Flying Reagent Dispenser, Aurora Discovery, San Diego, CA). After the plates were incubated at room temperature for 2 hours, fluorescence intensity was measured by an Envision plate reader (PerkinElmer, Shelton, CT).
Potency means the concentration at half of the fitted maximal effect.

Compound	Potency	activation
O=C(Cl)Oc1ccccc1	inactive	–
CCNC(C)Cc1ccc2c(c1)OCO2 (stereo not drawn)	inactive	–
O=P(Cl)(Oc1ccccc1)Oc1ccccc1	inactive	–
CC(C)CCCCCCCOP(OCCCCCCCC(C)C)Oc1ccccc1	inactive	–
CCC(C)(OOC(C)(C)C)OOC(C)(C)C	–	inactive: -0.244% [at 19 µM]
CN(C(=O)Cc1ccc(Cl)c(Cl)c1)[C@H]1CC[C@@]2(CCCO2)C[C@@H]1N1CCCC1	inactive	–
O=[P+](Oc1ccccc1)Oc1ccccc1	inactive	–
CN(N=O)C(=N)N[N+](=O)[O-]	inactive	–
CN(C(=O)Cc1ccccc1)[C@H]1CC[C@@]2(CCCO2)C[C@@H]1N1CCCC1	inactive	–
CN(C(=O)Cc1cccc2occc12)[C@H]1CC[C@@]2(CCCO2)C[C@@H]1N1CCCC1	inactive	–
O=C(Cl)OCCOC(=O)Cl	inactive	–
CCCCO[P+](=O)OCCCC	inactive	–
CCOC(=O)Cl	inactive	–
O=[p+]1oc2ccccc2c2ccccc21 (stereo not drawn)	inactive	–
COC(=O)Cl	inactive	–
CCOP(=S)(CC)Sc1ccccc1 (stereo not drawn)	inactive	–
O=P(Cl)(Cl)c1ccccc1	inactive	–
CCCCOP(OCCCC)OCCCC	inactive	–
COP(=S)(Cl)OC	inactive	–
ClP(Cl)c1ccccc1	inactive	–
O=[N+]([O-])c1ccc(S(=O)(=O)O)c([N+](=O)[O-])c1	active: 24.5 µM	–
NC(=O)Nc1ccc([As](=O)(O)O)cc1	inactive	–
CCCCC(CC)CO[P+](=O)OCC(CC)CCCC (stereo not drawn)	inactive	–
